EPAC1 ag: qHTS for Agonist of cAMP-regulated guanine nucleotide exchange factor 3 (EPAC1): primary screen; Potency, µM (doses to about 154 µM), without a hit: at the top dose activation, hits mostly activators; Rap guanine nucleotide exchange factor 3 (Homo sapiens), O95398; EPAC1 agonist qHTS, biochemical assay; response scale: 100% = response to 6.5 mM cAMP; AID 720707, 2013; hit rate 0.073% among 360,000; note: nearly all actives have a fitted effect of over 60% in size
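Compounds were pinned as a concentration titration into mixtures of EPAC1 (100 nM), BODIPY-GDP-loaded Rap1B (250 nM) and GDP (50 uM). After 5 min at room temperature, fluorescence was followed for 30 min; activity was scaled to 6.5 mM cAMP.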
EPAC2 agonist: qHTS for Agonist of cAMP-regulated guanine nucleotide exchange factor 4 (EPAC2): primary screen | Rap guanine nucleotide exchange factor 4 (Homo sapiens), Q8WZA2 | EPAC2 activation, biochemical qHTS; response scale: 100% = 6.5 mM cAMP response | Potency, µM (doses to about 154 µM), inactives show at the top dose activation, usual class: activators | hit rate 0.079% among 360,000; note: nearly all actives have a fitted effect of over 50% in size
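Setup: EPAC2 100 nM, labeled Rap1B complex 250 nM, free GDP 50 uM. Compound titrations pinned in, brief spin, 5 min room temperature incubation. Kinetic fluorescence read over 30 min, normalized to 6.5 mM cAMP.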
Rango complex inh: qHTS Assay for Inhibitors of Rango (Ran-regulated importin-beta cargo) - Importin beta complex formation; Importin subunit beta-1 (Homo sapiens), Q14974; Rango CFP/YFP FRET sensor + importin beta, 45 min; Potency, µM (titrated, usually from 92.2 µM), inactives show top-dose inhibition of complex formation; hit rate 0.031% among 340,000; AID 540263, 2011; calls by dose curve;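 note: 0% = DMSO wells and 100% = buffer wells lacking importin beta; nearly all actives have a fitted effect of over 15% in size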
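FRET biosensor (snurportin 1 IBB flanked by EYFP and cerulean), 50 nM, with compound 5 min, then 0.125 microM importin beta in PBS, 1 mM DTT, 0.02% Tween-20, 0.1% BSA. CFP/YFP ratio read after 45 min at room temperature; pre-read flags interference.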
Rango release inh: qHTS Assay for Inhibitors of RanGTP induced Rango (Ran-regulated importin-beta cargo) - Importin beta complex dissociation; Snurportin-1 (Homo sapiens) + GTP-binding nuclear protein Ran (Homo sapiens) + Importin …; Biochemical FRET Rango-importin beta, RanGTP-induced dissociation; Potency, µM (doses to about 46.1 µM), inactives show at the highest dose activity change, negative = inhibition; hit rate 0.071% among 340,000; AID 540253, 2011; calls by dose curve; note: % of control where 0% means no effect; nearly all actives have a fitted effect of over 45% in size
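Quantitative HTS using a FRET biosensor: 0.1 uM Rango, 0.25 uM importin beta, 0.6 uM Ran, 2 mM GTP, 0.2 uM RCC1 final, PBS with DTT, Tween-20 and BSA. Post-read taken 45 min after Ran addition.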
EPAC2 antag: qHTS for Antagonist of cAMP-regulated guanine nucleotide exchange factor 2 (EPAC2): primary screen; Rap guanine nucleotide exchange factor 4 (Homo sapiens), Q8WZA2; EPAC2 GEF exchange of Rap1B-BODIPY-GDP, fluorescence; Potency, µM (top dose mostly 114 µM), without a hit: at the top dose activity, negative = inhibition, usual class: inhibitors; hit rate 0.18% among 360,000; note: % is set by controls: 0 for no effect and ±100 for the full control effect; nearly all actives have a fitted effect of over 45% in size
EPAC1 antagonist: qHTS for Antagonist of cAMP-regulated guanine nucleotide exchange factor 3 (EPAC1): primary screen; Rap guanine nucleotide exchange factor 3 (Homo sapiens), O95398; EPAC1 GEF assay, Rap1b-BODIPY-GDP exchange fluorescence; Potency, µM (doses to about 115 µM), inactives show at the highest dose activity change, negative = inhibition, actives largely listed as inhibitors; hit rate 0.14% among 360,000; AID 720709, 2013;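 note: plate controls were vehicle for no effect and positive control for full effect; nearly all actives have a fitted effect of over 50% in size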
An asterisk follows results filed as active; ? = inconclusive; / = no result; [ ] = dose if it differs, or a comment. A selection: hits, their analogues and other compounds. The true share with any hit is near 0.43%. Unless noted, calls come from the whole dose curve; as a rule, active = well fitted curve in the direction sought with a large enough effect; inconclusive = small, poorly fitted or top-dose-only effect, or another doubt; inactive = no such curve, though single readings can be large; an effect the other way counts as inactive or inconclusive. Potency is the fitted concentration of half-maximal effect.

Protein sequences, listed by entry. Tags and fused reporters are not part of them.
Rap guanine nucleotide exchange factor 3 (Homo sapiens), O95398, UniProt O95398, whole entry, looked up: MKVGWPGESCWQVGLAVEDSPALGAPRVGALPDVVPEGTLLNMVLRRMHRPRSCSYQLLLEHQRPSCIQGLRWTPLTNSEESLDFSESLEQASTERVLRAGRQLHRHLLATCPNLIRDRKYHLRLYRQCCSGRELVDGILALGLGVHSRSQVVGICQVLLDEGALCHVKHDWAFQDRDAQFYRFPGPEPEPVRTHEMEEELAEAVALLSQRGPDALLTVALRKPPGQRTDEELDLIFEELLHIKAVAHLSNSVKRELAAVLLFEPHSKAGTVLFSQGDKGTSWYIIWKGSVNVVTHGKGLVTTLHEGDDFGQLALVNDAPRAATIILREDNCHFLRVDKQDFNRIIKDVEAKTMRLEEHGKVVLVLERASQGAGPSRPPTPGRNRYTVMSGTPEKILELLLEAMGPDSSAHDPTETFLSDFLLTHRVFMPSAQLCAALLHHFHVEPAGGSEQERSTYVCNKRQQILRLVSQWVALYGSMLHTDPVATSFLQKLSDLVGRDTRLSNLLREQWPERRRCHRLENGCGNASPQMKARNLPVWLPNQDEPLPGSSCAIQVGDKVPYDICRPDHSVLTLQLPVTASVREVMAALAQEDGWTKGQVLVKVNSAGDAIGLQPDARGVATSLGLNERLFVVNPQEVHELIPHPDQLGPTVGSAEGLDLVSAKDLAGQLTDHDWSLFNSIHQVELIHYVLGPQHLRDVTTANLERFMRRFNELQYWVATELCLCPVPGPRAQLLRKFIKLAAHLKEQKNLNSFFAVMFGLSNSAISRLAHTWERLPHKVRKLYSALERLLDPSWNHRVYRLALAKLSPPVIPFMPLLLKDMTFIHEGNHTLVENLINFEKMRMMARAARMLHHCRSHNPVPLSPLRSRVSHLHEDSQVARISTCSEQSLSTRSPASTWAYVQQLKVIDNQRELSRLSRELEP
Rap guanine nucleotide exchange factor 4 (Homo sapiens), Q8WZA2, UniProt Q8WZA2, whole entry, looked up: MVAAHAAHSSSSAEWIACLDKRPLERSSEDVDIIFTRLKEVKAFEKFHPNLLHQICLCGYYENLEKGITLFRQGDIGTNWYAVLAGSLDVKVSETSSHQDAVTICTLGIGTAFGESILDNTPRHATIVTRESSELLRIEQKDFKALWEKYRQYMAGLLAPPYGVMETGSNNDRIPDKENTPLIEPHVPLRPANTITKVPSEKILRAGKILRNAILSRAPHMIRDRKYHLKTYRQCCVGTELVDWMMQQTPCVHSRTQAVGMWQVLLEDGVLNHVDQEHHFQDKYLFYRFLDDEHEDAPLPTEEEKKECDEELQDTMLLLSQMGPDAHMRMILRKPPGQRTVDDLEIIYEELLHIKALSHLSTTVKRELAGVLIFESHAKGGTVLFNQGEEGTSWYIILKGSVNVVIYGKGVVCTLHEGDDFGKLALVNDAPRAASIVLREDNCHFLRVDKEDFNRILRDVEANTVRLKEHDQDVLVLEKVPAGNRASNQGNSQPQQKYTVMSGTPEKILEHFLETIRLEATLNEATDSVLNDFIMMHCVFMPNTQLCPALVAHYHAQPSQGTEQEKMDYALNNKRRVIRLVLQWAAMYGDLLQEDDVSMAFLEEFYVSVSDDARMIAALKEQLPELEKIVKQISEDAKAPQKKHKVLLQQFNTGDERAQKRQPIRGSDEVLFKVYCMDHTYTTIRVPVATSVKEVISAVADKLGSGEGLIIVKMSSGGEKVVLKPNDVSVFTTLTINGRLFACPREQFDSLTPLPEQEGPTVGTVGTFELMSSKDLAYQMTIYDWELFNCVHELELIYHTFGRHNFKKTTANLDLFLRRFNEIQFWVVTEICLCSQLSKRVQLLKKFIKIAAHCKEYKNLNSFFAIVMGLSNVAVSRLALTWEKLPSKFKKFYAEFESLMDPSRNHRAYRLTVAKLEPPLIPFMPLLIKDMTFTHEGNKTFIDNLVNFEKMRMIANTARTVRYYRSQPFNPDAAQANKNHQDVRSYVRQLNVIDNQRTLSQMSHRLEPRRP
Importin subunit beta-1 (Homo sapiens), Q14974, UniProt Q14974, whole entry, looked up: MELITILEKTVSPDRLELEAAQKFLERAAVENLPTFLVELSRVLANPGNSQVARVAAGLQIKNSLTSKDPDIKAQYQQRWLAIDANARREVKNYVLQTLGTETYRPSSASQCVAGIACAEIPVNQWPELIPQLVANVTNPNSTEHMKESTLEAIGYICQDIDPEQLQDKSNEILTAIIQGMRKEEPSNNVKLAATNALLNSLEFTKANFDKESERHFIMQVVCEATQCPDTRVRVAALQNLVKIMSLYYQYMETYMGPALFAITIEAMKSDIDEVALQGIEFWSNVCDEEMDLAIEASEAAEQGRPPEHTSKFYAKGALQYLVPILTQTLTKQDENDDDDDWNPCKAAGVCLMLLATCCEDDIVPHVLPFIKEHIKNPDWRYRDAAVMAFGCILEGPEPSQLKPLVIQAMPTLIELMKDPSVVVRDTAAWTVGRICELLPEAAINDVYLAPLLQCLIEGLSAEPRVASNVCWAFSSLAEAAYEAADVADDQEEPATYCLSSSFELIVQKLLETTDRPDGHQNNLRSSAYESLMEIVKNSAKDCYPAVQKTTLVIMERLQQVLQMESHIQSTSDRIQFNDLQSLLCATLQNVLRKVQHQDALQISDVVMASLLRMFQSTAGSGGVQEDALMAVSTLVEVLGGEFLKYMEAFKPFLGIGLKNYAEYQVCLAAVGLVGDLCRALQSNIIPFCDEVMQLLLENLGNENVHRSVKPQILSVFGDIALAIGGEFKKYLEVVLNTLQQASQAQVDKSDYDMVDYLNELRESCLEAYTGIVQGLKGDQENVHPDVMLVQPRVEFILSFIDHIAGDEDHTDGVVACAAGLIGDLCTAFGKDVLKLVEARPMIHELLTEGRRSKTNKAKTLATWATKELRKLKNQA

| compound | EPAC1 ag | EPAC2 agonist | Rango complex inh | Rango release inh | EPAC2 antag | EPAC1 antagonist |
| --- | --- | --- | --- | --- | --- | --- |
| CC1(C)CC(NC(=O)c2cccc(S(=O)(=O)Nc3cccc(Cl)c3)c2)CC(C)(C)N1 | -1% | 5% | 1% | 1% | 5% | -3% |
| COc1ccccc1CNCC(=O)Nc1ccc(C(F)(F)F)cc1 | 3% | 6% | 0% | 0% | -2% | -2% |
| COc1ccc(/C=C/C(=O)OCc2csc(-c3ccccc3)n2)cc1OC | 9% | 15% | 2% | 13% | -4% | -22% |
| O=Cc1c[nH]c2cccc(OCc3ccccc3)c12 | 16% | 10% | 58µM* | 6% | -19% | -30% |
| Cc1nn2c(c1-c1ccc(Cl)cc1)N=C(c1ccco1)CC2c1ccccc1 (stereo not given) | 12% | 8% | 58µM* | -21% | -3% | -1% |
| CC1(C)CC(=O)C(C(c2ccc3c(c2)OCO3)C2C(=O)CC(C)(C)CC2=O)C(=O)C1 | -11% | 2% | / | / | 5% | 1% |
| O=C(O)Cn1cc(/C=C2/NC(=O)N(c3ccc(Cl)cc3)C2=O)c2ccccc21 | 3% | -3% | ? | 10µM* | 5% | -15% |
| COc1ccccc1Nc1nc(-c2sc(N)nc2C)cs1 | -4% | -4% | 0% | -21% | 2% | 8% |

Overlap with the part before: 3 entries, followed by the next part.
| compound | EPAC1 ag | EPAC2 agonist | Rango complex inh | Rango release inh | EPAC2 antag | EPAC1 antagonist |
| --- | --- | --- | --- | --- | --- | --- |
| CC1(C)CC(=O)C(C(c2ccc3c(c2)OCO3)C2C(=O)CC(C)(C)CC2=O)C(=O)C1 | -11% | 2% | / | / | 5% | 1% |
| O=C(O)Cn1cc(/C=C2/NC(=O)N(c3ccc(Cl)cc3)C2=O)c2ccccc21 | 3% | -3% | ? | 10µM* | 5% | -15% |
| COc1ccccc1Nc1nc(-c2sc(N)nc2C)cs1 | -4% | -4% | 0% | -21% | 2% | 8% |
| Cc1nc(N)sc1-c1csc(Nc2ncccn2)n1 | 3% | ? | ? | -4% | 71µM* | -8% |
| CC1CCCCN1C(=O)c1cnn2c(C(F)(F)F)cc(-c3ccco3)nc12 (stereo not given) | 12% | 18% | ? | 9.2µM* | -7% | -20% |
| Cc1nc2scc(C)n2c(=O)c1S(=O)(=O)NCC1CCN(Cc2ccc(Cl)cc2)CC1 | -6% | 3% | 9% | 16% | 1% | 16% |
| O=C(Cn1cc(C(F)(F)F)ccc1=O)N1CCc2ccccc21 | 12% | 1% | 1% | 20% | -2% | -8% |
| O=C(Nc1cccc(Cl)c1)N(Cc1nc2ccccc2c(=O)[nH]1)Cc1cccs1 | 89µM* | 2% | 1% | -11% | -2% | -5% |
| CC1=NN(c2nc(-c3ccccc3)cs2)C(=O)C1 | -14% | 2% | 0% | 7% | 1% | 79µM* |
| CCCN1C(=O)c2ccccc2NC1c1ccc(Cl)c(Cl)c1 (stereo not given) | 8% | 4% | 0% | 12% | 28µM* | -30% |
| Cc1ccc(S(=O)(=O)N2CCOCC2)cc1C(=O)Nc1cc(S(=O)(=O)N2CCCCC2)ccc1O | -1% | -2% | 0% | 1% | -3% | 7% |
| COc1cccc(OC)c1-c1nn2c(-c3cc(-c4ccccc4)n[nH]3)nnc2s1 | ? | ? | 0% | 9% | 11µM* | 40µM* |
| COc1cccc(-c2nnc3sc(-c4ccccc4)nn23)c1 | 7% | -8% | -1% | -2% | 9% | -1% |
| CCC(=C(c1ccc(OC)cc1)c1ccc(OC)cc1)c1cn(CC(O)CN(CCO)CCO)c2ccccc12 (stereo not given) | 2% | 3% | 2% | -5% | 14µM* | -6% |
| COc1ccc(OCC(O)CN(CCO)CC(O)Cn2ccc3ccccc32)cc1 (stereo not given) | -4% | 8% | 1% | 7% | -17% | -2% |
| COc1ccc(-c2ccc(-c3noc(-c4ccccc4C)n3)c(OC)n2)cc1 | 4% | -1% | ? | 6.5µM*[inhibitor] | 1%[57.1 µM] | 1% |
